The values that follow come from US6511963B1 (priority 1992, dated 2003).

By UniProt entry, the sequences of proteins in these tests, tags left out. Residues count along the entry.
UniProt Q00960, 27-1482: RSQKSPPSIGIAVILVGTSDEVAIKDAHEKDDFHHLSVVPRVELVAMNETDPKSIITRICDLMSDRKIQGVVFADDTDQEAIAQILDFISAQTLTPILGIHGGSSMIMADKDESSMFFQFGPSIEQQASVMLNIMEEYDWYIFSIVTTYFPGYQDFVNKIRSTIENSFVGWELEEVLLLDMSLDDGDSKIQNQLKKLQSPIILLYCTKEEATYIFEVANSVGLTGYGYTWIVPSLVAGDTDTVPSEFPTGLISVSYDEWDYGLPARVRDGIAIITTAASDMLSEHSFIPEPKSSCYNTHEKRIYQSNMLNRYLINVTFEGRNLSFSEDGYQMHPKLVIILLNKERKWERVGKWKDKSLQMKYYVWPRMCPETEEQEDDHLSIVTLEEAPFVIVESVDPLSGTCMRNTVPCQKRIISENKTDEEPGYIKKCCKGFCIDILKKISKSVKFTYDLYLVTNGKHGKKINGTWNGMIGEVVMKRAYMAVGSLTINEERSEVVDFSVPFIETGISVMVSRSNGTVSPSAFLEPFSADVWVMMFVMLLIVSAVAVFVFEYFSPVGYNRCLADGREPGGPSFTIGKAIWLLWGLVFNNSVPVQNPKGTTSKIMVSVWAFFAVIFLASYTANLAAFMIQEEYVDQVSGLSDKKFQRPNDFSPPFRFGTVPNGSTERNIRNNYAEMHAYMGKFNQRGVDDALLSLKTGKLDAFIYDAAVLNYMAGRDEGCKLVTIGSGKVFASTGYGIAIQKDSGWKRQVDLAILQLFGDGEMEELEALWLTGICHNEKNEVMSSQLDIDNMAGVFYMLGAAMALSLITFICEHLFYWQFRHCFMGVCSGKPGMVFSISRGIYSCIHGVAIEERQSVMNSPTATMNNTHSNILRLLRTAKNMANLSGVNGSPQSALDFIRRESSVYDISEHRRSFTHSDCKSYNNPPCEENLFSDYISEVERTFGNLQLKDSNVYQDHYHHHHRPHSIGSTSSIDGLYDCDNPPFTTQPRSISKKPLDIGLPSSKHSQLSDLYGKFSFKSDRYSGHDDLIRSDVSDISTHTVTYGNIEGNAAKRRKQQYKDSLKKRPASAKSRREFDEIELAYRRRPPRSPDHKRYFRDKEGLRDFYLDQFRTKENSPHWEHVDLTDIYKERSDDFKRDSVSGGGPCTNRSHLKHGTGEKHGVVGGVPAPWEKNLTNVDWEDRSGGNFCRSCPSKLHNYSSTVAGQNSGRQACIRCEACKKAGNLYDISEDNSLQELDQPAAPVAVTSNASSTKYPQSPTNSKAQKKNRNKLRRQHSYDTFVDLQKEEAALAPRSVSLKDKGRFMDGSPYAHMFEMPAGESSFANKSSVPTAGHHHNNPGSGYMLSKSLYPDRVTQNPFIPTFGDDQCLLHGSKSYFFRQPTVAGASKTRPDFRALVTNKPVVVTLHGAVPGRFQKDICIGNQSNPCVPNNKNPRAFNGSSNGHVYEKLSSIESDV

Like-named read-outs stand apart in the source and are kept apart here. Some results are limits rather than exact numbers.

Test [1] concerns NMDA receptor. Format: binding, rat.
The target in test [2] is NMDA receptor (Rattus norvegicus, UniProt P35439+Q00960). In words: biochemical. Format: binding. Set-up: other: test compound in the absence of spermine; concentration at 50% of maximum stimulation; % Sti; spermine = 100; other: with and without spermine; absence of spermine; % STI; absence.
[3] abbreviates: read-out: IC50, inhibition of spermine-enhanced [3H]MK-801 binding.

As to `CC[C@H](C)[C@H](NC(=O)[C@H](CC(C)C)NC(=O)[C@H](CC(C(=O)O)C(=O)O)NC(=O)[C@H](CCC(N)=O)NC(=O)[C@H](CC(N)=O)NC(=O)[C@H](Cc1ccc(O)cc1)NC(=O)[C@H](CCC(N)=O)NC(=O)[C@H](CC(C)C)NC(=O)[C@H](CC(C(=O)O)C(=O)O)NC(=O)[C@H](CC(C(=O)O)C(=O)O)NC(=O)[C@H](CCC(=O)O)NC(=O)CN)C(=O)N[C@@H](CCCNC(=N)N)C(=O)N[C@@H](CC(C(=O)O)C(=O)O)C(=O)N[C@@H](CCCCN)C(=O)N[C@@H](CO)C(=O)N[C@@H](CC(N)=O)C(N)=O` [Tyr7-Con-G, GEggLQYNQgLIRgKSN], in the test on NMDA receptor [1], the “% Inh” value came out at 100%. The IC50 on NMDA receptor [1] (read-out: Spermine IC) amounted to 0.5 µM. For the same compound, the Emax on NMDA receptor [2] (read-out: % Sti) turned out to be 0%.

For the compound `CC[C@H](C)[C@H](NC(=O)[C@H](CC(C)C)NC(=O)[C@H](CC(C(=O)O)C(=O)O)NC(=O)[C@H](CCC(N)=O)NC(=O)[C@H](CC(N)=O)NC(=O)[C@H](CC(C(=O)O)C(=O)O)NC(=O)[C@H](CCC(N)=O)NC(=O)[C@H](CC(C)C)NC(=O)[C@H](CC(C(=O)O)C(=O)O)NC(=O)[C@H](C)NC(=O)[C@H](CCC(=O)O)NC(=O)CN)C(=O)N[C@@H](CCCNC(=N)N)C(=O)N[C@@H](CC(C(=O)O)C(=O)O)C(=O)N[C@@H](CCCCN)C(=O)N[C@@H](CO)C(=O)N[C@@H](CC(N)=O)C(N)=O` [Ala3-Con-G, GEAgLQgNQgLIRgKSN], in the test with NMDA receptor [1], the “% Inh” value turned out to be 34 ± 9% and the “inhibition of [3H]MK-801 binding produced by maximally effective spermine” value is on record as 34%. Also, at NMDA receptor [1] (setting [3]), the IC50 was found to be 1.8 ± 0.1 µM. In addition, on NMDA receptor [2] (read-out: % Sti), the Emax amounted to 0%.

For `CC[C@H](C)[C@H](NC(=O)[C@H](CC(C)C)NC(=O)[C@H](CC(C(=O)O)C(=O)O)NC(=O)[C@H](CCC(N)=O)NC(=O)[C@H](CC(N)=O)NC(=O)[C@H](CC(C(=O)O)C(=O)O)NC(=O)[C@H](CCC(N)=O)NC(=O)[C@H](CC(C)C)NC(=O)[C@H](CC(C(=O)O)C(=O)O)NC(=O)[C@H](CO)NC(=O)[C@H](CCC(=O)O)NC(=O)CN)C(=O)N[C@@H](CCCNC(=N)N)C(=O)N[C@@H](CC(C(=O)O)C(=O)O)C(=O)N[C@@H](CCCCN)C(=O)N[C@@H](CO)C(=O)N[C@@H](CC(N)=O)C(N)=O` [Ser3-Con-G, GESgLQgNQgLIRgKSN], in the test with NMDA receptor [1], the “% INH” value turned out to be 23 ± 3.6%. Also, the “% Inh” value with NMDA receptor [1] was 23 ± 3.6%. For the same compound, the IC50 on NMDA receptor [1] (read-out: IC50), at NMDA receptor [1] (setting [3]) and at NMDA receptor [1] (read-out: Spermine IC) was 3.6 ± 0.7 µM in each case. The Emax on NMDA receptor [2] (read-out: % STI) and on NMDA receptor [2] (read-out: % Sti) was 62 ± 4.9% throughout.

For `NCCCC[C@H](NC(=O)[C@@H](N)CC(C(=O)O)C(=O)O)C(=O)N[C@@H](CO)C(=O)N[C@@H](CC(N)=O)C(N)=O` [Con-G(14-17), gKSN], in the test with NMDA receptor [1], the “% Inh” value turned out to be 0% and the “inhibition of spermine-induced [3H]MK-801 binding” value was “no inhibition”. On NMDA receptor [2], the “stimulation of [3H]MK-801 binding in the absence of spermine” value was “stimulated”. For the same compound, the Emax on NMDA receptor [2] (read-out: % Sti) was 61 ± 1.3%.

Turning to `CC[C@H](C)[C@H](NC(=O)[C@H](CC(C)C)NC(=O)[C@H](CC(C(=O)O)C(=O)O)NC(=O)[C@H](CCC(N)=O)NC(=O)[C@H](CC(N)=O)NC(=O)[C@H](Cc1ccc(O)c(I)c1)NC(=O)[C@H](CCC(N)=O)NC(=O)[C@H](CC(C)C)NC(=O)[C@H](CC(C(=O)O)C(=O)O)NC(=O)[C@H](CC(C(=O)O)C(=O)O)NC(=O)[C@H](CCC(=O)O)NC(=O)CN)C(=O)N[C@@H](CCCNC(=N)N)C(=O)N[C@@H](CC(C(=O)O)C(=O)O)C(=O)N[C@@H](CCCCN)C(=O)N[C@@H](CO)C(=O)N[C@@H](CC(N)=O)C(N)=O` [iodo-Tyr7-Con-G, GEggLQY(I)NQgLIRgKSN], the “% Inh” value in the test on NMDA receptor [1] is 100%. Further, the IC50 on NMDA receptor [1] (read-out: Spermine IC) was 0.5 µM. In addition, the Emax at NMDA receptor [2] (read-out: % Sti) was 0%.

Turning to `CC[C@H](C)[C@H](NC(=O)[C@H](CC(C)C)NC(=O)[C@H](C)NC(=O)[C@H](CCC(N)=O)NC(=O)[C@H](CC(N)=O)NC(=O)[C@H](C)NC(=O)[C@H](CCC(N)=O)NC(=O)[C@H](CC(C)C)NC(=O)[C@H](CC(C(=O)O)C(=O)O)NC(=O)[C@H](CC(C(=O)O)C(=O)O)NC(=O)[C@H](CCC(=O)O)NC(=O)CN)C(=O)N[C@@H](CCCNC(=N)N)C(=O)N[C@@H](C)C(=O)N[C@@H](CCCCN)C(=O)N[C@@H](CO)C(=O)N[C@@H](CC(N)=O)C(N)=O` [Ala7,10,14-Con-G], the “% Inh” value in the test on NMDA receptor [1] came out at 100%. At NMDA receptor [1] (read-out: Spermine IC), the IC50 was determined as 0.5 µM. The Emax at NMDA receptor [2] (read-out: % Sti) was determined as 0%.

Regarding `CC[C@H](C)[C@H](NC(=O)[C@H](CC(C)C)NC(=O)[C@H](CC(C(=O)O)C(=O)O)NC(=O)[C@H](CCC(N)=O)NC(=O)[C@H](CC(N)=O)NC(=O)[C@H](CC(C(=O)O)C(=O)O)NC(=O)[C@H](CCC(N)=O)NC(=O)[C@H](CC(C)C)NC(=O)[C@H](CC(C(=O)O)C(=O)O)NC(=O)[C@H](CC(C(=O)O)C(=O)O)NC(=O)[C@H](CCC(=O)O)NC(=O)CNC(=O)[C@@H](N)CO)C(=O)N[C@@H](CCCNC(=N)N)C(=O)N[C@@H](CC(C(=O)O)C(=O)O)C(=O)N[C@@H](CCCCN)C(=O)N[C@@H](CO)C(=O)N[C@@H](CC(N)=O)C(N)=O` [Ser^o-Con-G, S-GEggLQgNQgLIRgKSN], the “% Inh” value in the test on NMDA receptor [1] was 41%. Moreover, the IC50 at NMDA receptor [1] (read-out: Spermine IC) was 6.8 µM. For the same compound, on NMDA receptor [2] (read-out: % Sti), the Emax came out at 0%.

As to `NCCCC[C@H](N)C(=O)N[C@@H](CO)C(=O)N[C@@H](CC(N)=O)C(N)=O` [Con-G(15-17), KSN], in the test on NMDA receptor [1], the “% Inh” value was found to be 0%. The Emax on NMDA receptor [2] (read-out: % Sti) was ~20%.

With `CC[C@H](C)[C@H](N)C(=O)N[C@@H](CCCNC(=N)N)C(=O)N[C@@H](CC(C(=O)O)C(=O)O)C(=O)N[C@@H](CCCCN)C(=O)N[C@@H](CO)C(=O)N[C@@H](CC(N)=O)C(N)=O` [Con-G(12-17), IRgKSN], at NMDA receptor [2] (read-out: % Sti), the Emax turned out to be 20%.

As to `CC[C@H](C)[C@H](NC(=O)[C@H](CC(C)C)NC(=O)[C@H](CC(C(=O)O)C(=O)O)NC(=O)[C@H](CCC(N)=O)NC(=O)[C@H](CC(N)=O)NC(=O)[C@H](CO)NC(=O)[C@H](CCC(N)=O)NC(=O)[C@H](CC(C)C)NC(=O)[C@H](CC(C(=O)O)C(=O)O)NC(=O)[C@H](CC(C(=O)O)C(=O)O)NC(=O)[C@H](CCC(=O)O)NC(=O)CN)C(=O)N[C@@H](CCCNC(=N)N)C(=O)N[C@@H](CC(C(=O)O)C(=O)O)C(=O)N[C@@H](CCCCN)C(=O)N[C@@H](CO)C(=O)N[C@@H](CC(N)=O)C(N)=O` [Ser7-Con-G, GEggLQSNQgLIRgKSN], the “% Inh” value in the test with NMDA receptor [1] stood at 100%. The IC50 on NMDA receptor [1] (read-out: Spermine IC) stood at 0.25 ± 0.04 µM. Besides, on NMDA receptor [2] (read-out: % Sti), the Emax worked out at 0%.

Turning to `CC[C@H](C)[C@H](NC(=O)[C@H](CC(C)C)NC(=O)[C@H](CC(C(=O)O)C(=O)O)NC(=O)[C@H](CCC(N)=O)NC(=O)[C@H](CC(N)=O)NC(=O)[C@H](CC(C(=O)O)C(=O)O)NC(=O)[C@H](CCC(N)=O)NC(=O)[C@H](CC(C)C)NC(=O)[C@H](CC(C(=O)O)C(=O)O)NC(=O)[C@H](CC(C(=O)O)C(=O)O)NC(=O)[C@H](CCC(=O)O)NC(=O)CNC(=O)[C@@H](N)Cc1ccccc1)C(=O)N[C@@H](CCCNC(=N)N)C(=O)N[C@@H](CC(C(=O)O)C(=O)O)C(=O)N[C@@H](CCCCN)C(=O)N[C@@H](CO)C(=O)N[C@@H](CC(N)=O)C(N)=O` [Phe^o-Con-G, F-GEggLQgNQgLIRgKSN], the “% INH” value with NMDA receptor [1] is on record as 51%. Also, the “% Inh” value in the test with NMDA receptor [1] is 51%. The IC50 at NMDA receptor [1] (read-out: IC50) and on NMDA receptor [1] (read-out: Spermine IC) was 6.1 µM throughout. For the same compound, the Emax on NMDA receptor [2] (read-out: % STI) and at NMDA receptor [2] (read-out: % Sti) was 53 ± 17% in each case.

In the case of `CC[C@H](C)[C@H](NC(=O)[C@H](CC(C)C)NC(=O)[C@H](CC(C(=O)O)C(=O)O)NC(=O)[C@H](CCC(N)=O)NC(=O)[C@H](CC(N)=O)NC(=O)[C@H](CC(C(=O)O)C(=O)O)NC(=O)[C@H](CCC(N)=O)NC(=O)[C@H](CC(C)C)NC(=O)[C@H](CC(C(=O)O)C(=O)O)NC(=O)[C@H](CC(C(=O)O)C(=O)O)NC(=O)[C@H](CCC(=O)O)NC(=O)CNC(=O)[C@@H](N)CC(N)=O)C(=O)N[C@@H](CCCNC(=N)N)C(=O)N[C@@H](CC(C(=O)O)C(=O)O)C(=O)N[C@@H](CCCCN)C(=O)N[C@@H](CO)C(=O)N[C@@H](CC(N)=O)C(N)=O` [Asn^o-Con-G, N-GEggLQgNQgLIRgKSN], the “% Inh” value with NMDA receptor [1] is listed as 83%. Also, the IC50 on NMDA receptor [1] (read-out: Spermine IC) came to 8.7 µM. The Emax on NMDA receptor [2] (read-out: % Sti) amounted to 0%.

On to `CC[C@H](C)[C@H](NC(=O)[C@H](CC(C)C)NC(=O)[C@H](CCC(=O)O)NC(=O)[C@H](CCC(N)=O)NC(=O)[C@H](CC(N)=O)NC(=O)[C@H](CCC(=O)O)NC(=O)[C@H](CCC(N)=O)NC(=O)[C@H](CC(C)C)NC(=O)[C@H](CC(C(=O)O)C(=O)O)NC(=O)[C@H](CC(C(=O)O)C(=O)O)NC(=O)[C@H](CCC(=O)O)NC(=O)CN)C(=O)N[C@@H](CCCNC(=N)N)C(=O)N[C@@H](CCC(=O)O)C(=O)N[C@@H](CCCCN)C(=O)N[C@@H](CO)C(=O)N[C@@H](CC(N)=O)C(N)=O` [Glu7,10,14-Con-G], for which the “% Inh” value with NMDA receptor [1] is on record as 70%. Besides, at NMDA receptor [1] (read-out: Spermine IC), the IC50 is > 5 µM. For the same compound, the Emax at NMDA receptor [2] (read-out: % Sti) is 0%.

In the case of `CC[C@H](C)[C@H](NC(=O)[C@H](CC(C)C)NC(=O)[C@H](CC(C(=O)O)C(=O)O)NC(=O)[C@H](CCC(N)=O)NC(=O)[C@H](CC(N)=O)NC(=O)[C@H](CC(C(=O)O)C(=O)O)NC(=O)[C@H](CCC(N)=O)NC(=O)[C@H](CC(C)C)NC(=O)[C@H](CC(C(=O)O)C(=O)O)NC(=O)[C@H](CC(C(=O)O)C(=O)O)NC(=O)[C@H](CCC(=O)O)NC(=O)CN)C(=O)N[C@@H](CCCNC(=N)N)C(=O)N[C@@H](C)C(=O)N[C@@H](CCCCN)C(=O)N[C@@H](CO)C(=O)N[C@@H](CC(N)=O)C(N)=O` [Alal4-Con-G, GEggLQgNQgLIRAKSN], the “% Inh” value in the test with NMDA receptor [1] was 100%. The IC50 at NMDA receptor [1] (read-out: Spermine IC) is 0.16 ± 0.03 µM. Further, at NMDA receptor [2] (read-out: % Sti), the Emax amounted to 0%.
